A short description of data set [1]: Hygroscopicity evaluation by Dynamic Vapor Sorption (DVS). Format: physicochemical. Particulars: weight change, room temperature (about 25° C.), RH 80%, 24 hours.
Data set [2] in a line: Water-solubility evaluation. Format: physicochemical. Particulars: 20° C. The procedure: The water-solubilities at 20° C. for the (S)-quinuclidin-3-yl (5-(3-chloro-4-isopropoxyphenyl)-2,2-dimethyl-2,3-dihydro-1H-inden-1-yl)carbamate prepared according to the method disclosed in WO 2021/096238 (‘the compound of WO 2021/096238’, in the form of free base) and the compound obtained in Example 1 were measured.

With “tartaric acid salt of (S)-quinuclidin-3-yl ((R)-5-(3-chloro-4-isopropoxyphenyl)-2,2-dimethyl-2,3-dihydro-1H-inden-1-yl)carbamate [Comparative Example 2]”, the Moisture adsorption in data set [1] came to 11.6%. In data set [2], “((1S,4R)-7,7-dimethyl-2-oxobicyclo[2.2.1]heptan-1-yl)methanesulfonic acid salt of (S)-quinuclidin-3-yl ((R)-5-(3-chloro-4-isopropoxyphenyl)-2,2-dimethyl-2,3-dihydro-1H-inden-1-yl)carbamate [Example 1]” registered a Water-solubility of 1700 µg/mL. In data set [1], “citric acid salt of (S)-quinuclidin-3-yl ((R)-5-(3-chloro-4-isopropoxyphenyl)-2,2-dimethyl-2,3-dihydro-1H-inden-1-yl)carbamate [Comparative Example 3]” yielded a Moisture adsorption of 12.2%.

In data set [1], “HCl salt of (S)-quinuclidin-3-yl ((R)-5-(3-chloro-4-isopropoxyphenyl)-2,2-dimethyl-2,3-dihydro-1H-inden-1-yl)carbamate [Comparative Example 1]” showed a Moisture adsorption of 15.6%.
